{"sequences": {"note": "Protein sequences, listed by entry. Tags and fused reporters are not part of them. Lines headed by an entry give the natural chain unless they say otherwise; changes in a name come on top.", "UniProt P35372, whole entry, looked up": "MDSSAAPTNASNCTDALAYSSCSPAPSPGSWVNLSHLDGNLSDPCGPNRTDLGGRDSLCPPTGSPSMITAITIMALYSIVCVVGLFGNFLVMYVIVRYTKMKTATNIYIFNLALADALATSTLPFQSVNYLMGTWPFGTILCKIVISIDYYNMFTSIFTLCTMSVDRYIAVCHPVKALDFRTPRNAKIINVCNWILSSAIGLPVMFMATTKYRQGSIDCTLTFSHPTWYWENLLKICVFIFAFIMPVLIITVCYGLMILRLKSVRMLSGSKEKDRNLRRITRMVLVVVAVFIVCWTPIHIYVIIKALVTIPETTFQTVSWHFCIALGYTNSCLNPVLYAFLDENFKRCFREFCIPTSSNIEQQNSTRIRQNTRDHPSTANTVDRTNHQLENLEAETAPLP", "UniProt P41146": "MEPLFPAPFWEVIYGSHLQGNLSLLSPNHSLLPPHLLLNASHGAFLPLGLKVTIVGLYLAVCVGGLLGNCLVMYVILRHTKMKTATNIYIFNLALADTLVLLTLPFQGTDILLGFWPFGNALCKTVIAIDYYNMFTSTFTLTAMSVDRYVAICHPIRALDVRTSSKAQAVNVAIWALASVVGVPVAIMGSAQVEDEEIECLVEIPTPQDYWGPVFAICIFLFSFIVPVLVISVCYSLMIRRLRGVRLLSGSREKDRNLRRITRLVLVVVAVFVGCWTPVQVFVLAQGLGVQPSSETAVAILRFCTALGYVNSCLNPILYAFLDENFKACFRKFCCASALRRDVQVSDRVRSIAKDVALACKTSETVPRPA"}, "source": "ChEMBL document CHEMBL5728057", "about": "“3-((hetero-)aryl)-8-amino-2-oxo-1,3-diaza-spiro-[4.5]-decane derivatives” (2020)"}
{"target": "Mu-type opioid receptor (Homo sapiens, UniProt P35372)", "experiment": "Human Mu-Opioid Peptide (hMOP) Receptor Binding Assay: The hMOP receptor binding assay was performed as homogeneous SPA-assay (scintillation proximity assay) using the assay buffer 50 mM TRIS-HCl (pH 7.4) supplemented with […] bovine serum albumin (Sigma-Aldrich Co. St. Louis. Mo.). The final assay volume (250 l/well) included 1 nM of [N-allyl-2.3-3H]naloxone as ligand (PerkinElmer Life Sc", "units": {"Ki": "µM"}}
{"smiles": "CN(C)[C@]1(c2ccccc2)CC[C@]2(CC1)CN(c1cnc(N3CCOCC3)c(F)c1)C(=O)N2", "Ki": 4.49}
{"smiles": "Cc1nc(N2CCNC(=O)C2)ncc1N1C[C@]2(CC[C@](c3ccccc3)(N(C)C)CC2)NC1=O", "Ki": 4.09}
{"smiles": "CN(C)[C@]1(c2ccccc2)CC[C@]2(CC1)CN(c1cnc(N3CCOCC3)c(C(F)(F)F)c1)C(=O)N2", "Ki": 2.58}
{"smiles": "CN(C)[C@]1(c2ccccc2)CC[C@]2(CC1)CN(c1ccc(C(F)(F)F)cc1S(C)(=O)=O)C(=O)N2CC1CCC1", "Ki": 0.022}
{"smiles": "CN(C)[C@]1(c2ccccc2)CC[C@]2(CC1)CN(c1cnc(C#N)nc1)C(=O)N2CC1(C)CCC1", "Ki": 0.22}
{"smiles": "CN(C)[C@]1(c2ccccc2)CC[C@]2(CC1)CN(c1cccc(C(N)=O)c1)C(=O)N2CC1CCC1", "Ki": 0.018}
{"smiles": "CCN(C)[C@]1(c2ccccc2)CC[C@]2(CC1)CN(c1cnc(C#N)nc1)C(=O)N2CC1CCC1", "Ki": 1.05}
{"smiles": "Cc1ncc(N2C[C@]3(CC[C@](c4ccccc4)(N(C)C)CC3)NC2=O)c(NCC(N)=O)n1", "Ki": 6.83}
{"smiles": "CN(C)[C@]1(c2cccs2)CC[C@]2(CC1)CN(c1cnc(N3CCOCC3)nc1)C(=O)N2", "Ki": 3.36}
{"smiles": "CN(C)[C@]1(c2ccccc2)CC[C@]2(CC1)CN(c1cnc(N3CCOCC3)nc1)C(=O)N2CC1(O)CCC1", "Ki": 0.018}
{"smiles": "CN(C)[C@]1(c2ccccc2)CC[C@]2(CC1)CN(c1ncc(-c3cccc4c3CC(=O)N4)cc1F)C(=O)N2", "Ki": 1.66}
{"smiles": "CNC(=O)c1ccc(N2C[C@]3(CC[C@](c4ccccc4)(N(C)C)CC3)N(CC3CCC3)C2=O)cc1", "Ki": 0.03}
{"smiles": "CN(C)[C@]1(c2ccccc2)CC[C@]2(CC1)CN(c1ncc(C(F)(F)F)cc1F)C(=O)N2", "Ki": 3.78}
{"smiles": "CN[C@]1(c2ccccc2)CC[C@]2(CC1)CN(c1ccc(S(C)(=O)=O)cc1)C(=O)N2CC1CCC1", "Ki": 0.059}
{"smiles": "CN1CCN(c2ncc(N3C[C@]4(CC[C@](c5ccccc5)(N(C)C)CC4)NC3=O)cn2)CC1", "Ki": 1.22}
{"smiles": "CN(C)[C@]1(c2ccccc2)CC[C@]2(CC1)CN(c1cnccc1S(C)(=O)=O)C(=O)N2", "Ki": 4}
{"smiles": "CN(C)[C@]1(c2ccccc2)CC[C@]2(CC1)CN(c1ccc(-c3cccc4c3CC(=O)N4)cn1)C(=O)N2", "Ki": 0.735}
{"smiles": "CN(Cc1ccccc1)c1ncc(N2C[C@]3(CC[C@](c4ccccc4)(N(C)C)CC3)NC2=O)cn1", "Ki": 1.91}
{"smiles": "CN(C)[C@]1(c2ccccc2)CC[C@]2(CC1)CN(c1cnc(C#N)cn1)C(=O)N2CC1CCC1", "Ki": 0.25}
{"smiles": "CN1CCN(c2ccc(N3C[C@]4(CC[C@](c5ccccc5)(N(C)C)CC4)NC3=O)cn2)CC1=O", "Ki": 3.84}
{"smiles": "CN(C)[C@]1(c2ccccc2)CC[C@]2(CC1)CN(c1ccc3[nH]c(N4CCOCC4)nc3c1)C(=O)N2", "Ki": 0.925}
{"smiles": "CN(C)[C@]1(c2ccccc2)CC[C@]2(CC1)CN(c1cnc(C(N)=O)nc1)C(=O)N2CC1CCC1", "Ki": 0.012}
{"smiles": "CN[C@]1(c2ccccc2)CC[C@]2(CC1)CN(c1cnc(C#N)nc1OC)C(=O)N2CC1CCC1", "Ki": 0.12}
{"smiles": "CN(C)[C@]1(c2ccccc2)CC[C@]2(CC1)CN(c1ccc(S(C)(=O)=O)cc1F)C(=O)N2", "Ki": 3.57}
{"smiles": "CN(C)[C@]1(c2ccccc2)CC[C@]2(CC1)CN(c1ccc(C#N)cc1)C(=O)N2CC1(O)CCC1", "Ki": 0.065}
{"target": "Nociceptin receptor (Homo sapiens, UniProt P41146)", "experiment": "Human Nociceptin/Orphanin FQ Peptide (hNOP) Receptor Binding Assay: The hNOP receptor binding assay was performed as homogeneous SPA-assay (scintillation proximity assay) using the assay buffer 50 mM TRIS-HCl. 10 mM MgCl2. 1 mM EDTA (pH 7.4). The final assay volume (250 μl/well) included 0.5 nM of [leucyl-3H]nociceptin as ligand (PerkinElmer Life Sciences. Inc. Boston. Mass. USA). and either test", "units": {"Ki": "µM"}}
{"smiles": "COC(=O)c1ccc(N2C[C@]3(CC[C@](c4ccccc4)(N(C)C)CC3)N(CC3CCC3)C2=O)cc1", "Ki": 0.008}
{"smiles": "CN(C)[C@]1(c2cccc(F)c2)CC[C@]2(CC1)CN(c1ccc(S(C)(=O)=O)cn1)C(=O)N2CC1CC1", "Ki": 0.005}
{"smiles": "CN(C)[C@]1(c2ccccc2)CC[C@]2(CC1)CN(c1cnc(O)nc1)C(=O)N2CC1(O)CCC1", "Ki": 0.0077}
{"smiles": "CN(C)[C@]1(c2ccccc2)CC[C@]2(CC1)CN(c1ccc(OC(F)(F)F)cc1)C(=O)N2", "Ki": 0.027}
{"smiles": "COCCN1C(=O)N(c2ccnc(C#N)n2)C[C@]12CC[C@](c1ccccc1)(N(C)C)CC2", "Ki": 0.0139}
{"smiles": "Cc1cc(C(F)(F)F)ncc1N1C[C@]2(CC[C@](c3cccc(Cl)c3)(N(C)C)CC2)NC1=O", "Ki": 0.088}
{"smiles": "CN[C@]1(c2cccc(F)c2)CC[C@]2(CC1)CN(c1ccc(S(C)(=O)=O)cn1)C(=O)N2CC1CC1", "Ki": 0.008}
{"smiles": "CN(C)[C@]1(c2ccccc2)CC[C@]2(CC1)CN(c1cnc(C#N)nc1)C(=O)N2CC1CC1", "Ki": 0.0108}
{"smiles": "Cc1cc(C(=O)N(C)c2ncc(N3C[C@]4(CC[C@](c5ccccc5)(N(C)C)CC4)NC3=O)cn2)n(C)n1", "Ki": 0.055}
{"smiles": "CN(C)[C@]1(c2ccccc2)CC[C@]2(CC1)CN(c1cnc(NC3CCOCC3)nc1)C(=O)N2", "Ki": 0.022}
{"smiles": "Cc1nc(N2CCOCC2)ncc1N1C[C@]2(CC[C@](c3ccc(F)cc3)(N(C)C)CC2)NC1=O", "Ki": 0.24}
{"smiles": "Cc1cc(-c2ccccn2)ncc1N1C[C@]2(CC[C@](c3ccccc3)(N(C)C)CC2)NC1=O", "Ki": 0.005}
{"smiles": "CN(C)[C@]1(c2cccc(F)c2)CC[C@]2(CC1)CN(c1ccc(S(C)(=O)=O)cn1)C(=O)N2", "Ki": 0.011}
{"smiles": "Cc1cccnc1N1C[C@]2(CC[C@](c3ccccc3)(N(C)C)CC2)NC1=O", "Ki": 0.11}
{"smiles": "CN(C)[C@]1(c2ccccc2)CC[C@]2(CC1)CN(c1cnc(N3CCC(O)CC3)nc1)C(=O)N2", "Ki": 0.011}
{"smiles": "Cc1cc(C(F)(F)F)ncc1N1C[C@]2(CC[C@](c3cccc(C(F)(F)F)c3)(N(C)C)CC2)NC1=O", "Ki": 1.22}
{"smiles": "CN(C)[C@]1(c2ccccc2)CC[C@]2(CC1)CN(c1cnc(N3CCOCC3)nc1)C(=O)N2", "Ki": 0.03}
{"smiles": "CN[C@]1(c2ccccc2)CC[C@]2(CC1)CN(c1cnc(C#N)nc1)C(=O)N2CC1(O)CCC1", "Ki": 0.008}
{"smiles": "CN(C)[C@]1(c2ccccc2)CC[C@]2(CC1)CN(c1ccc(S(C)(=O)=O)cn1)C(=O)N2", "Ki": 0.014}
{"smiles": "CC(=O)N1CCN(c2ncc(N3C[C@]4(CC[C@](c5ccccc5)(N(C)C)CC4)NC3=O)c(C(F)(F)F)n2)CC1", "Ki": 0.02}
{"smiles": "CN(C)[C@]1(c2ccccc2)CC[C@]2(CC1)CN(c1ccc(OC(F)(F)F)cc1F)C(=O)N2", "Ki": 0.053}
{"smiles": "COc1cccc([C@]2(N(C)C)CC[C@@]3(CC2)CN(c2cnc(C(F)(F)F)cc2C)C(=O)N3)c1", "Ki": 0.195}
{"smiles": "CN(C)[C@]1(c2ccccc2)CC[C@]2(CC1)CN(c1cnc(C(N)=O)nc1)C(=O)N2", "Ki": 0.119}
{"smiles": "Cc1cnccc1N1C[C@]2(CC[C@](c3ccccc3)(N(C)C)CC2)NC1=O", "Ki": 0.052}
{"smiles": "CN(C)[C@]1(c2ccccc2)CC[C@]2(CC1)CN(c1cnc(-c3ccc(F)cc3)nc1)C(=O)N2", "Ki": 0.013}
{"smiles": "CCCNC(=O)CN1C(=O)N(c2cnc(C#N)nc2)C[C@]12CC[C@](c1ccccc1)(N(C)C)CC2", "Ki": 0.119}
{"smiles": "CN(C)[C@]1(c2ccccc2)CC[C@]2(CC1)CN(c1cnc(NC(=O)c3cccs3)nc1)C(=O)N2", "Ki": 0.015}
{"smiles": "CN(C)C(=O)CN1C(=O)N(c2ccnc(C#N)n2)C[C@]12CC[C@](c1ccccc1)(N(C)C)CC2", "Ki": 0.085}
{"smiles": "Cc1cc(N2CCNC(=O)C2)ncc1N1C[C@]2(CC[C@](c3ccccc3)(N(C)C)CC2)NC1=O", "Ki": 0.019}
{"smiles": "CN(C)[C@]1(c2ccccc2)CC[C@]2(CC1)CN(c1cnccc1CC(N)=O)C(=O)N2", "Ki": 0.15}
{"smiles": "CN[C@]1(c2ccccc2)CC[C@]2(CC1)CN(c1cnc(C#N)nc1OC)C(=O)N2CCCOC", "Ki": 0.0555}
{"smiles": "CN(C)[C@]1(c2ccccc2)CC[C@]2(CC1)CN(c1cnccc1F)C(=O)N2", "Ki": 0.105}
{"smiles": "CN(C)[C@]1(c2ccccc2)CC[C@]2(CC1)CN(c1cnc(NCc3ccccc3)nc1)C(=O)N2", "Ki": 0.019}
{"smiles": "CN(C)[C@]1(c2ccccc2)CC[C@]2(CC1)CN(c1cnc(C(F)(F)F)cc1C(F)(F)F)C(=O)N2", "Ki": 0.013}
{"smiles": "Cc1cc(F)cc([C@]2(N(C)C)CC[C@@]3(CC2)CN(c2cnc(C(F)(F)F)cc2C)C(=O)N3)c1", "Ki": 0.014}
{"smiles": "CN(C)[C@]1(c2ccccc2)CC[C@]2(CC1)CN(c1cnc(NC(=O)c3ccccc3)nc1)C(=O)N2", "Ki": 0.018}
{"smiles": "CN(C)[C@]1(c2ccccc2)CC[C@]2(CC1)CN(c1ccc(-c3ccccc3)s1)C(=O)N2", "Ki": 0.119}
{"smiles": "CN(C)[C@]1(c2ccccc2)CC[C@]2(CC1)CN(c1cccc(OC(F)(F)F)c1)C(=O)N2", "Ki": 0.042}
{"smiles": "CN(C)[C@]1(c2ccccc2)CC[C@]2(CC1)CN(c1ccc(C(N)=O)cn1)C(=O)N2", "Ki": 0.031}
{"smiles": "CN(C)[C@]1(c2ccccc2)CC[C@]2(CC1)CN(c1cnc(N3CCS(=O)(=O)CC3)nc1C(F)(F)F)C(=O)N2", "Ki": 0.083}
{"smiles": "CN(C)[C@]1(c2ccccc2)CC[C@]2(CC1)CN(c1csc(-c3ccncc3)n1)C(=O)N2", "Ki": 0.45}
{"smiles": "Cc1ncc(N2C[C@]3(CC[C@](c4ccccc4)(N(C)C)CC3)NC2=O)cn1", "Ki": 0.205}
{"smiles": "CN(C)[C@]1(c2ccccc2)CC[C@]2(CC1)CN(c1ccc(S(C)(=O)=O)cc1)C(=O)N2", "Ki": 0.038}
{"smiles": "CN[C@]1(c2ccccc2)CC[C@]2(CC1)CN(c1ccc(S(=O)(=O)N(C)C)cc1C(F)(F)F)C(=O)N2CC1CCC1", "Ki": 0.011}
{"smiles": "Cc1cc(C(F)(F)F)ncc1N1C[C@]2(CC[C@](c3cccs3)(N(C)C)CC2)NC1=O", "Ki": 0.023}
{"smiles": "Cc1cc(C(N)=O)cnc1N1C[C@]2(CC[C@](c3ccccc3)(N(C)C)CC2)NC1=O", "Ki": 0.027}
{"smiles": "Cc1ncc(N2C[C@]3(CC[C@](c4ccccc4)(N(C)C)CC3)NC2=O)c(C)n1", "Ki": 0.027}
{"smiles": "Cc1cc(C(F)(F)F)ncc1N1C[C@]2(CC[C@@](c3cccs3)(N(C)C)CC2)NC1=O", "Ki": 0.011}
{"smiles": "COC(=O)COc1ccccc1N1C[C@]2(CC[C@](c3ccccc3)(N(C)C)CC2)NC1=O", "Ki": 0.03}
{"smiles": "CC(=O)n1cc(N2C[C@]3(CC[C@](c4ccccc4)(N(C)C)CC3)NC2=O)c2ccccc21", "Ki": 0.011}
{"smiles": "CN(C)[C@]1(c2ccccc2)CC[C@]2(CC1)CN(c1cnc(-c3ccccn3)nc1)C(=O)N2", "Ki": 0.005}
{"smiles": "CN[C@]1(c2ccccc2)CC[C@]2(CC1)CN(c1cnc(C#N)nc1OC)C(=O)N2", "Ki": 0.08}
{"smiles": "CN[C@]1(c2ccccc2)CC[C@]2(CC1)CN(c1ccc(S(C)(=O)=O)cc1)C(=O)N2CC1CC1", "Ki": 0.008}
{"smiles": "CN[C@]1(c2ccccc2)CC[C@]2(CC1)CN(c1ccc(C#N)cc1OC)C(=O)N2", "Ki": 0.46}
{"smiles": "CN(C)[C@]1(c2ccccc2)CC[C@]2(CC1)CN(c1cnc(N3CCN(CC(=O)O)CC3)nc1)C(=O)N2", "Ki": 0.052}
{"smiles": "CN1CCN(C(=O)c2ncc(N3C[C@]4(CC[C@](c5ccccc5)(N(C)C)CC4)NC3=O)cn2)CC1", "Ki": 0.019}
{"smiles": "CN(C)[C@]1(c2ccccc2)CC[C@]2(CC1)CN(c1cnc(-c3cc(F)c(F)c(F)c3)nc1)C(=O)N2", "Ki": 0.335}
